Data reported in article PMC6662813, “A new regulatory mechanism for Raf kinase activation, retinoic acid-bound Crabp1” (Scientific Reports, 2019).

The chains behind the UniProt entries cited, without tags or fusion partners.
UniProt P62965, whole entry: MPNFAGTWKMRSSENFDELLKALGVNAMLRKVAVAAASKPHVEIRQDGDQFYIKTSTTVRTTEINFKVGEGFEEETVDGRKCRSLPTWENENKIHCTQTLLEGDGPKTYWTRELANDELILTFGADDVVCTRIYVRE

Target: T1, Crabp1 (cellular retinoic acid binding protein 1) (Mus musculus, UniProt P62965)
T1 construct: uniformly 15N-labeled His-tagged Crabp1 (pET-15b, N-terminal His6x-tag)
Test: […]-1H HSQC NMR of […]N-Crabp1 with […] atRA (slow exchange)

Compound: CC1=C(/C=C/C(C)=C/C=C/C(C)=C/C(=O)O)C(C)(C)CCC1 [atRA, all-trans retinoic acid]
- Kd: < 1 µM
